# Most compounds without a hit are left out; they make up all but 0.46% or so of the library.
# GIV-Gai inh = inhibitors of GIV GBA-motif binding to rat Galpha-i3. 210,000 tested, 0.42% active. percent of control (FP), % (concentration not given with the values). AID 1224905. Galpha-i3/FITC-GIV peptide fluorescence polarization, 90 min; active compounds read low; scaled: aluminum fluoride 0%, vehicle 100%;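 active = replicate mean at 85% of control or lower, very high polarization wells dropped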;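 note: wells of about 15 µL received 100 nL stock; the first replicate is given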
# HCMV UL50-53 inh = inhibitors of HCMV UL50-UL53 interaction, biochemical, HTRF. HCMV UL50-UL53 nuclear egress complex (human cytomegalovirus). normalized percent inhibition. inhibition, % (test concentration not listed). 190,000 compounds, 0.15% hits. AID 1918969, 2023; in the data active = inhibition above about 27%, passing the limit was not always enough
# Starred values were filed as active, the others as inactive; . = not tested or not shown.
1: CCCCn1c(NC(=O)c2ccccc2)c(C#N)c2nc3ccccc3nc21
2: CCC(C)n1c(NC(=O)c2ccccc2)c(C#N)c2nc3ccccc3nc21 (stereo not drawn)
3: N#CC(C(=O)c1ccco1)c1nc2ccccc2[nH]1 (stereo not drawn)
4: COc1cccc2cc(C(=O)C3=C(O)C(=O)N(CCCn4ccnc4)C3c3ccc(F)cc3)oc12 (stereo not drawn)
5: COc1cc(C2C(C(=O)c3cc4cccc(OC)c4o3)=C(O)C(=O)N2c2nnc(C)s2)cc(Br)c1O (stereo not drawn)
6: C=CCNC(=O)C1CC2CCCC(C1)C2=O (stereo not drawn)
7: CCOC(=O)C1=C(C)N=c2s/c(=C\c3ccc(O)c(Br)c3)c(=O)n2C1c1ccc(OC)cc1 (stereo not drawn)
8: CCOC(=O)C1=C(C)N=c2s/c(=C\c3ccc(O)c(Br)c3)c(=O)n2C1c1ccc(OC)c(OC)c1 (stereo not drawn)
entry no. | 1 | 2 | 3 | 4 | 5 | 6 | 7 | 8
HCMV UL50-53 inh | 73 | 72* | -17 | -61 | -74 | -28 | -10 | -12
GIV-Gai inh | . | . | 105 | 105 | 27* | . | 186 | 71*

9: CN(C)c1ccc(/C=C(\C#N)c2nc3ccccc3c(=O)[nH]2)cc1
10: CN(C)c1ccc(/C=C(\C#N)C(N)=C(C#N)C#N)cc1
11: CN(C)c1ccc(/C=C(\C#N)C(N)=O)cc1
12: CN(C)c1ccc(/C=C(/C#N)c2ccc(C#N)cc2)cc1
13: Cc1ccc(C2CCCCCN2C(=O)NCC(C)C)s1 (stereo not drawn)
14: NS(=O)(=O)c1ccc(-c2ccc(C=C3SC(=O)NC3=O)o2)cc1
15: CCOc1ccc(C(=O)c2cccs2)cc1
16: CCOc1ccc(C(=O)c2[nH]c(=O)c3ccccc3c2O)cc1
entry no. | 9 | 10 | 11 | 12 | 13 | 14 | 15 | 16
HCMV UL50-53 inh | -43 | . | -118 | -10 | . | -49 | -9 | 61*
GIV-Gai inh | 254 | -24* | . | 11* | 104 | . | 99 | 89

17: CCOCCn1c(COc2ccc(C(C)(C)C)cc2)nc2ccccc21
18: O=C(O)c1cc(N2CCN(c3ccc(Cl)cc3)CC2)nc2ccc(NC(=O)C3CC3)cc12
19: Nc1ccc2c3c(cccc13)C(=O)C=C2
20: NS(=O)(=O)c1ccc2c3c(cccc13)C(=O)N2
21: Cc1ccc(NC(=O)Nc2ccc3c(c2)N(C)C(=O)CS3)cc1
22: CN1C(=O)CSc2ccc(NC(=O)Nc3cccnc3)cc21
23: COC(=O)CN(C#N)c1nc(NCc2ccccc2)nc(OC)n1
24: COC(=O)CN(C#N)c1nc(C)cc(C)n1
entry no. | 17 | 18 | 19 | 20 | 21 | 22 | 23 | 24
HCMV UL50-53 inh | -17 | -30 | 57* | -70 | . | 35* | 54* | 1
GIV-Gai inh | 96 | 103 | -30* | . | 106 | 101 | 110 | 98

25: CCCCNC(=O)C1CCN(c2cc(C)nc3c(-c4ccc(OC)c(OC)c4)c(C)nn23)CC1
26: O=c1[nH]nc(SCc2cccc3ccccc23)c(=O)[nH]1
27: O=c1[nH]nc(SCc2ccccc2)c(=O)[nH]1
28: Cc1ccc(-c2nccc(Oc3ccc(C(=O)NCCC4=CCCCC4)cc3)n2)cc1
29: CCn1c(C)nc2cc(Cl)ccc21
30: C=Cn1c(C)c(C(C#N)=C(C#N)C#N)c2c1CCCC2
31: CCOC(=O)CSc1nc2c(sc3ccccc32)c(=O)n1Cc1ccc(C)cc1
32: CC(C)CSc1nc2c(sc3ncccc32)c(=O)n1Cc1ccccc1
entry no. | 25 | 26 | 27 | 28 | 29 | 30 | 31 | 32
HCMV UL50-53 inh | -17 | -1 | -21 | . | -10 | 10 | . | 62*
GIV-Gai inh | 102 | 85* | 99 | 98 | 102 | 106 | 105 | 103

33: O=C(Cn1cnc2c(sc3ncccc32)c1=O)Nc1ccc(F)c(F)c1
34: O=C(CSc1nc2c(sc3ncccc32)c(=O)n1Cc1ccccc1)Nc1ccc(F)c(F)c1
35: O=C(CSc1nc2c(sc3ncccc32)c(=O)n1Cc1ccc(F)cc1)Nc1ccc(F)c(F)c1
36: COc1ccc(Cn2c(SCC(=O)Nc3cccc(Cl)c3)nc3ncccc3c2=O)cc1
37: CN1C=C(C(F)(F)F)C=CC1=C1C(=O)c2ccccc2C1=O
38: O=C1CCNc2cc3ccccc3cc21
39: O=C1CCNc2ccc(-c3ccccc3)cc21
40: c1ccc(COc2ccc(Oc3ncnc4c3oc3ccccc34)cc2)cc1
entry no. | 33 | 34 | 35 | 36 | 37 | 38 | 39 | 40
HCMV UL50-53 inh | . | 68* | 64* | 2 | -110 | -73 | -58 | -8
GIV-Gai inh | 104 | 102 | 101 | 105 | . | 119 | 14* | .

41: COc1cc2c(C#N)c(N(C)CCc3ccc(OC)c(OC)c3)nc(N)c2c(N)n1
42: COc1ccc(CCN(C)c2nc(N)c3c(N)nc(SCC(=O)O)cc3c2C#N)cc1OC
43: O=C(CSc1nc2ccccc2c(=O)n1CCCC(=O)N1CCN(c2ccccc2)CC1)NC1CCCCC1
44: COc1cc(/C=C(\C#N)C(=O)C(C)(C)C)ccc1O
45: COc1cc(/C=C(\C#N)C(=O)c2ccc(O)c(O)c2)cc(I)c1O
46: CC1CCCCC1NC(=O)COC(=O)c1cc(-c2ccco2)nc2ccccc12 (stereo not drawn)
47: CCOc1ccc(-c2nc3ccc(-c4nc5ccc(N6CCN(C)CC6)cc5[nH]4)cc3[nH]2)cc1
48: CCOc1ccc(NS(=O)(=O)c2ccc3nc(-c4ccccc4)[nH]c3c2)cc1
entry no. | 41 | 42 | 43 | 44 | 45 | 46 | 47 | 48
HCMV UL50-53 inh | -11 | 82* | . | -73 | -122 | -48 | 75* | -14
GIV-Gai inh | . | . | 114 | . | -31* | . | . | 106

49: COC(=O)Oc1ccc2c(C)cc(=O)oc2c1
50: CN1c2ccccc2Oc2nnc(N3CCN(Cc4ccccc4)CC3)cc21
51: CN1c2ccccc2Oc2nnc(Cl)cc21
52: COc1ccc(-c2csc(NC(C)=O)n2)cc1C
53: CCCN1C(=O)/C(=C/c2ccc(CC)cc2)NC1=S
54: CCCN1C(=O)/C(=C/c2cc(Br)c(O)c(OCC)c2)NC1=S
55: O=C(Nc1ccc(Cl)cc1)C(=S)N1CCOCC1
56: COc1cccc(NCc2nc3nc4c(c(=O)n3[nH]2)CCC4)c1
entry no. | 49 | 50 | 51 | 52 | 53 | 54 | 55 | 56
HCMV UL50-53 inh | -1 | -40 | 105* | 12 | . | -65 | -1 | 4
GIV-Gai inh | 97 | 104 | 104 | . | 104 | -83* | 105 | 112

57: COC(=O)c1c(-c2cccc(Cl)c2)noc1NC1CCCC1
58: N#Cc1c(N=CN2CCCCC2)nc2c(c1-c1ccccc1)CCCC2
59: N#Cc1c(S/C=C(\O)c2ccccc2)nc2c(c1C(F)(F)F)CCCC2
60: Cc1ccc(/C=C2/SC(=S)N(c3ccc(S(N)(=O)=O)cc3)C2=O)o1
61: Cc1ccc(/C=C2\SC(=O)NC2=S)o1
62: C(=N\OCc1cccc(CO/N=C/c2ccco2)c1)/c1ccco1
63: CCCOC(=O)c1c(C)oc2c1cc(NS(=O)(=O)c1ccc(OCC)cc1)c1ccccc12
64: CCOc1ccc(S(=O)(=O)Nc2cc(Cl)c(O)c3ccccc23)cc1
entry no. | 57 | 58 | 59 | 60 | 61 | 62 | 63 | 64
HCMV UL50-53 inh | . | -23 | -41 | -14 | -55 | -69 | -43 | 59*
GIV-Gai inh | 105 | 101 | -44* | . | 46* | . | 108 | .

# The final 4 records of the section above lead into the next.
61: Cc1ccc(/C=C2\SC(=O)NC2=S)o1
62: C(=N\OCc1cccc(CO/N=C/c2ccco2)c1)/c1ccco1
63: CCCOC(=O)c1c(C)oc2c1cc(NS(=O)(=O)c1ccc(OCC)cc1)c1ccccc12
64: CCOc1ccc(S(=O)(=O)Nc2cc(Cl)c(O)c3ccccc23)cc1
65: Cc1ccc(CSc2nc(-c3cccs3)ccc2C#N)cc1
66: Cc1ccc(CSc2nc(C(=O)O)ccc2C#N)cc1
67: Cc1nn(-c2ccccc2)c(C)c1CCc1nn2c(-c3ccccc3F)nnc2s1
68: Cc1nc(-c2cccc(NC(=O)CN3CCCC3c3cccs3)c2)cs1 (stereo not drawn)
69: COc1ccc(NC(=O)CN(C)C2CCCCC2)c(OC)c1
70: COc1cc(C=C2C(=O)NC(=O)NC2=O)ccc1Oc1ccc([N+](=O)[O-])cc1[N+](=O)[O-]
71: COc1cc(C=C2C(=O)NC(=O)NC2=O)ccc1OCc1ccccc1[N+](=O)[O-]
72: Cn1c(P(=O)(O)c2ccccc2)nc2ccccc21
73: CN1CCCc2cc(/C=C3\CCC(C4CCCC4)C3=O)ccc21 (stereo not drawn)
74: CN1CCCc2cc(/C=C3\CC/C(=C/c4ccc5c(c4)N(C)CCC5)C3=O)ccc21
75: CCCOC1CCCN(C2CCN(c3ccc(F)c(F)c3)CC2)C1 (stereo not drawn)
entry no. | 61 | 62 | 63 | 64 | 65 | 66 | 67 | 68 | 69 | 70 | 71 | 72 | 73 | 74 | 75
HCMV UL50-53 inh | -55 | -69 | -43 | 59* | -30 | 54* | -12 | -17 | -12 | 49* | -11 | -8 | . | . | -2
GIV-Gai inh | 46* | . | 108 | . | 103 | . | 100 | . | . | 102 | 101 | . | 157 | -75* | .

# Source: PubChem
